Structures are written as SMILES. Where “and” joins values, the source holds several entries; their conditions need not be identical. Identical values can stand only once.

Protein sequences, listed by entry. Tags and fused reporters are not part of them. Lines headed by an entry give the natural chain unless they say otherwise; changes in a name come on top.
UniProt Q9GZQ6: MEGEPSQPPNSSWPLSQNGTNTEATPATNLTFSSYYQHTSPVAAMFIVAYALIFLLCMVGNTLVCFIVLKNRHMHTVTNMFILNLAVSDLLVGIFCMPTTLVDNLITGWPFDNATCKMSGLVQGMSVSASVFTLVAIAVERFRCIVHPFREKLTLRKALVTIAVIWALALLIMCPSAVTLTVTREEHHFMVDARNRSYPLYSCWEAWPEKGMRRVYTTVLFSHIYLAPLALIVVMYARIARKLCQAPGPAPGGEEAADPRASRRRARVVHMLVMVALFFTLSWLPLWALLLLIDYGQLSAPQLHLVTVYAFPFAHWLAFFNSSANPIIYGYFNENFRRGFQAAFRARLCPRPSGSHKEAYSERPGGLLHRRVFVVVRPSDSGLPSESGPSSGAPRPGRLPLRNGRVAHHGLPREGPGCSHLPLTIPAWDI
UniProt P33032: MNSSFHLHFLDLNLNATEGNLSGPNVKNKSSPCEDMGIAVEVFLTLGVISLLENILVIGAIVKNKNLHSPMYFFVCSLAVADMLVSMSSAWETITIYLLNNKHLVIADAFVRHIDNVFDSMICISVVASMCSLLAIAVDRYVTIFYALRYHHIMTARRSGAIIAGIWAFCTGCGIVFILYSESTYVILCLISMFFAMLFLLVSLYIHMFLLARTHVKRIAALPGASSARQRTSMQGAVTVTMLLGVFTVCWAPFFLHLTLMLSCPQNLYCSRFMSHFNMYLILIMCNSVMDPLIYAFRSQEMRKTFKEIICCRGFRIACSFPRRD
UniProt P34972, whole entry: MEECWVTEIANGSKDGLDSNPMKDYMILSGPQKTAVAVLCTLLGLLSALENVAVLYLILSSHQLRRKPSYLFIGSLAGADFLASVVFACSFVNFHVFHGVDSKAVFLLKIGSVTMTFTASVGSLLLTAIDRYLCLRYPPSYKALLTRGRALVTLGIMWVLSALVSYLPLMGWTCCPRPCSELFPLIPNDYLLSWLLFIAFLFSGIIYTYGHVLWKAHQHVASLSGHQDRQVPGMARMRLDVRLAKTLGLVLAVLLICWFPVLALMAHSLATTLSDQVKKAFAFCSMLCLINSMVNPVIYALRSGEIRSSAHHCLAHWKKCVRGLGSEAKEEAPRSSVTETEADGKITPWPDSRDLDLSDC
UniProt P08912, whole entry: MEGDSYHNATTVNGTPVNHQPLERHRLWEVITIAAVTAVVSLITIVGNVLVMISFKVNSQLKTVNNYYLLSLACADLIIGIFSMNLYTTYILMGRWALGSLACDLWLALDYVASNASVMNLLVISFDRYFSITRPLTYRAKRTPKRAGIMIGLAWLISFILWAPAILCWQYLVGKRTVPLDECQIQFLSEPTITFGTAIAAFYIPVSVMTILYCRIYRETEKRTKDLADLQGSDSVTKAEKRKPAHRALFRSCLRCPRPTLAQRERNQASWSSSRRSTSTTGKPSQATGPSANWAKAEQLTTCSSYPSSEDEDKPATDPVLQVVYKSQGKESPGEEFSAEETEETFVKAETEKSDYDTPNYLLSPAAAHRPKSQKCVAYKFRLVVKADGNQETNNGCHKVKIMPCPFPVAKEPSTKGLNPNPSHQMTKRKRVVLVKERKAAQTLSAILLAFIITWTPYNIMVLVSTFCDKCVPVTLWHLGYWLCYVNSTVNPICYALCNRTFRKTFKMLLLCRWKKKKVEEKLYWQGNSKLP
UniProt P08173, whole entry: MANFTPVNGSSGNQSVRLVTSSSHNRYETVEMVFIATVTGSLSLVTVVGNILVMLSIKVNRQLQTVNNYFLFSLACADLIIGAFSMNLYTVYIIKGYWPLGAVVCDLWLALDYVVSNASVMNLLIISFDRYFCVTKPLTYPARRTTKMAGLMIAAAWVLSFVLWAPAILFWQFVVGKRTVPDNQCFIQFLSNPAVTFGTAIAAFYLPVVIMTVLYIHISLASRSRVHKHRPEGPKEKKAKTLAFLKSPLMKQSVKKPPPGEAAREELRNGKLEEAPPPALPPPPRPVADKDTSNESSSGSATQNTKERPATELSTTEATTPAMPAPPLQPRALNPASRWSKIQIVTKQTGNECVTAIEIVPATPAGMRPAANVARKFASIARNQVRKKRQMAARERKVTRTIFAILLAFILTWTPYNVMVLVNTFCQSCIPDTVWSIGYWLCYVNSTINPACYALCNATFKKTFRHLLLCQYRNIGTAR
UniProt P35367, whole entry: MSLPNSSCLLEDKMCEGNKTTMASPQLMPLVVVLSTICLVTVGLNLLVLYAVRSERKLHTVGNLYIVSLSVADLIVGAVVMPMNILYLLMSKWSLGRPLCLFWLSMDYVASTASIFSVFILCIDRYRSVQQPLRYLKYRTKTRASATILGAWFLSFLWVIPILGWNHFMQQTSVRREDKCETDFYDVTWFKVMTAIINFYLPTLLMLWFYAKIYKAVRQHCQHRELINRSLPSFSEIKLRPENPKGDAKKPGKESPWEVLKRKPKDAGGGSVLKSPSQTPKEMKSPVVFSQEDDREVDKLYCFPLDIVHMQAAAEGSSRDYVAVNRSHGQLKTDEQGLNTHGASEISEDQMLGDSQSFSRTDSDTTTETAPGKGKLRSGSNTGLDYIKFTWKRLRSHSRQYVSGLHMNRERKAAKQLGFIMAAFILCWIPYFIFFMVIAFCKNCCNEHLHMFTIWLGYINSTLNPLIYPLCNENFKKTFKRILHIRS
UniProt P18089, whole entry: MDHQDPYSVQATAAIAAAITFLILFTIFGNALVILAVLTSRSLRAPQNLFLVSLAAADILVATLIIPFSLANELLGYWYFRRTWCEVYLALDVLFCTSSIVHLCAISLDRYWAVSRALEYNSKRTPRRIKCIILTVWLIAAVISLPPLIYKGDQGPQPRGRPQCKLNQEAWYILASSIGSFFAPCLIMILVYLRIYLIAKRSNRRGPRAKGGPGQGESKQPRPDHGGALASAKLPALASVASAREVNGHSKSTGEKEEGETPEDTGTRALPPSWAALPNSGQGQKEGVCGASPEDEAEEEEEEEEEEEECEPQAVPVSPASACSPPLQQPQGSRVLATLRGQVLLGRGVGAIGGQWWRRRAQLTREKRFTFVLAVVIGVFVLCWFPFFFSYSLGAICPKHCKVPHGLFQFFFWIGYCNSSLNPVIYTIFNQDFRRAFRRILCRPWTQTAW
UniProt P20309, whole entry: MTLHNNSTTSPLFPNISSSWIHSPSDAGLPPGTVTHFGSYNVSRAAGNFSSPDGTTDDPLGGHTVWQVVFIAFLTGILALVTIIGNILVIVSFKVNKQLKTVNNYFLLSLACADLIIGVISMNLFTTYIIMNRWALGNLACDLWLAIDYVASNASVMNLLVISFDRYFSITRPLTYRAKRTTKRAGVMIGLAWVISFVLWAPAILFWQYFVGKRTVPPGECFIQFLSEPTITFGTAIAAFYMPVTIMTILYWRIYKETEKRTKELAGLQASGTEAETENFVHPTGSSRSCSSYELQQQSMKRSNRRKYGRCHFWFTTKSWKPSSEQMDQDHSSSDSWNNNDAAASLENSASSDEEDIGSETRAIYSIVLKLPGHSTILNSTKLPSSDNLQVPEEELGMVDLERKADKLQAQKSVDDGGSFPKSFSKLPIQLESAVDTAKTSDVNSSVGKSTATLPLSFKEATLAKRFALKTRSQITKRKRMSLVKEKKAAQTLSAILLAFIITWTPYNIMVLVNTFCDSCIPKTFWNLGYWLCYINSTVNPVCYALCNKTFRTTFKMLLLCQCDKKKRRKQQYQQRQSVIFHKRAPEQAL

One assay concerns the target T1, FZD10 (Homo sapiens, UniProt Q9ULW2).
T1 construct: purchased Promega (in-house HiBiT-GPCR construct library, NanoBRET)
T1 sequence (Q9ULW2 21-581): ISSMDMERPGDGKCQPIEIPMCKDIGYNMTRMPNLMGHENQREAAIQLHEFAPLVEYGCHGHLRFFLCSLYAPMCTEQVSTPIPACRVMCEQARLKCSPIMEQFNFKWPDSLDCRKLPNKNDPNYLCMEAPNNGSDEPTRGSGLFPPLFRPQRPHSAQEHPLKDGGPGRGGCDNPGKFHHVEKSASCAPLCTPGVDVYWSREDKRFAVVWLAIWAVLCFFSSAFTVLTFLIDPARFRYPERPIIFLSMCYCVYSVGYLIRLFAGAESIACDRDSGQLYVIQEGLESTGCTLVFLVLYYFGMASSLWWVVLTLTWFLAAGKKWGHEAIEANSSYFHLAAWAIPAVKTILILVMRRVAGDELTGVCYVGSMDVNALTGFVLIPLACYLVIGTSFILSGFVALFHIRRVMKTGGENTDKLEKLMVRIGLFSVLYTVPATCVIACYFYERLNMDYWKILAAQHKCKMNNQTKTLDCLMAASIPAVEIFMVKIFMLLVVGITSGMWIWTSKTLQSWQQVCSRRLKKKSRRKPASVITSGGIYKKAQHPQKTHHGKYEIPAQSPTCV
The assay is described as follows: NanoBRET screen HiBiT-FZD10 in HEK293. The conditions noted are these: tracer 0.1μM. The format is binding. On the procedure: (§1) Each tracer candidate was screened across the entire library of HiBiT-GPCR constructs using NanoBRET as the detection modality. As depicted in Figure 4A, the specificity of interactions was evaluated through decrease in BRET due to competitive displacement of a bound tracer by excess parental compound. Each tracer was analyzed for binding to each HiBiT-GPCR fusion in the absence and in the presence of competing parental compound. Briefly, HEK293 cells were transfected with HiBiT-GPCR constructs diluted into promoterless DNA to reduce expression and maximize translocation to the cell surface. Each tracer candidate was then screened at concentrations of 1 μM and 0.1 μM across cells expressing these fusions. Cells were treated for 1.5 h with tracer either alone or in the presence of 20 μM competing parental compound (i.e., control). BRET was measured upon addition of purified LgBiT and subsequent complementation with HiBiT genetically fused to a GPCR. The specificity of interactions was assessed through a decrease in BRET signal due to competitive displacement of the bound tracer. To further gauge the robustness of these interactions, the fold response over the control (i.e., BRETtracer/BRETcontrol) was calculated. We chose a 1.5-fold response, which translates to ≥7-fold signal over noise as the minimal threshold required to score an interaction as positive. […]. […]

In another assay the target is T2, NPFFR1 (Homo sapiens, UniProt Q9GZQ6).
T2 construct: purchased Promega (in-house HiBiT-GPCR construct library, NanoBRET)
Nature of the assay: NanoBRET screen HiBiT-NPFFR1 in HEK293. In kind it is binding. The conditions noted are these: NPFFR1; tracer 1μM. On the procedure:
(§2) Each tracer candidate was screened across the entire library of HiBiT-GPCR constructs using NanoBRET as the detection modality. As depicted in Figure 4A, the specificity of interactions was evaluated through decrease in BRET due to competitive displacement of a bound tracer by excess parental compound. Each tracer was analyzed for binding to each HiBiT-GPCR fusion in the absence and in the presence of competing parental compound. Briefly, HEK293 cells were transfected with HiBiT-GPCR constructs diluted into promoterless DNA to reduce expression and maximize translocation to the cell surface. Each tracer candidate was then screened at concentrations of 1 μM and 0.1 μM across cells expressing these fusions. Cells were treated for 1.5 h with tracer either alone or in the presence of 20 μM competing parental compound (i.e., control). BRET was measured upon addition of purified LgBiT and subsequent complementation with HiBiT genetically fused to a GPCR. The specificity of interactions was assessed through a decrease in BRET signal due to competitive displacement of the bound tracer. To further gauge the robustness of these interactions, the fold response over the control (i.e., BRETtracer/BRETcontrol) was calculated. We chose a 1.5-fold response, which translates to ≥7-fold signal over noise as the minimal threshold required to score an interaction as positive. […]. Below we highlight the screening results obtained for our exemplary fluorescent tracers based on Clozapine, Amitriptyline and AZD1283.
(§3) HiBiT-GPCR DNA constructs were diluted in 10 mM Tris pH 8 to a final concentration of 0.01 μg/μL, arrayed in 96-well plates and stored at −20 °C. For transfection, HEK293 cells were suspended in Opti-MEM (without phenol red) supplemented with 2% fetal bovine serum (Seradigm) and 100 units/mL penicillin–streptomycin (Gibco) at a final concentration of 220,000 cells/mL and dispensed into white 96-well plates at 90 μL/well. Subsequent transfections and screens were carried using an Agilent Bravo Automated Liquid Handling Platform. First, the 96-well HiBiT DNA arrays were diluted 25-fold in Opti-MEM (without serum or phenol red) to a final concentration of 0.0004 μg/μL and 20 μL of the diluted DNAs were transferred into new 96-well plates. Next, promoterless carrier DNA (1 μg/μL) was diluted 25-fold (0.04 μg/μL) and then dispensed into the diluted arrays at 20 μL/well. Following brief mixing, Viafect transfection reagent (Promega) diluted 16-fold into Opti-MEM was dispensed into the plates at 40 μL/well. After mixing by pipetting, plates were incubated for 10 min on the pipetting station deck. The DNA-transfection reagent complexes were then added to plates containing cells. To facilitate the screen, 10 μL of DNA-transfection reagent complexes were added in duplicates to the top 4 and bottom 4 rows, resulting in two identical 48-well arrays per plate. Plates with transfected cells were incubated for 18–20 h at 37 °C/5% CO2. A screen of each tracer across the entire library using two different concentrations requires duplicate plates of transfected cells. Depending on the number of tracers being screened, transfections can be scaled up using the same ratios. The next day, for each tracer, four 20× screening solutions in tracer dilution buffer (Promega) were prepared: two duplicates at final concentration of 20 μM and two duplicates at a final concentration of 2 μM. A competing unmodified compound was added to one of each duplicate at a final concentration of 400 μM. […]
On the technique in general: BRET reads energy transfer from a luciferase to a nearby fluorophore.

The next assay concerns the target T3, NPSR1 (Homo sapiens, UniProt Q6W5P4).
T3 construct: purchased Promega (in-house HiBiT-GPCR construct library, NanoBRET)
T3 sequence (Q6W5P4 1-371): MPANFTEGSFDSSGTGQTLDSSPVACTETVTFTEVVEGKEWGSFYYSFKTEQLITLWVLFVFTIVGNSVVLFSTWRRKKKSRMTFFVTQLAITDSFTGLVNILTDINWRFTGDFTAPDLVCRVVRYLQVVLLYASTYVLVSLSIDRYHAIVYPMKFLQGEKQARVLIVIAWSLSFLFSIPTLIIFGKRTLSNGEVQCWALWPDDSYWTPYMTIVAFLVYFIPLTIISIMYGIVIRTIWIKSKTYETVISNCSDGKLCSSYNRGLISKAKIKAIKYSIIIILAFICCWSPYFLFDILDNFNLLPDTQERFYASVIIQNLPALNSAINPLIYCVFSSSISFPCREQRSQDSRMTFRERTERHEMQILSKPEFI
Nature of the assay: NanoBRET screen HiBiT-NPSR1 in HEK293. In kind it is binding. As to conditions: tracer 0.1μM. The procedure:
as §1

The next assay addresses T4, MC5R (Homo sapiens, UniProt P33032).
T4 construct: purchased Promega (in-house HiBiT-GPCR construct library, NanoBRET)
The assay is described as follows: NanoBRET screen HiBiT-MC5R in HEK293. The conditions noted are these: tracer 0.1μM. In kind it is binding. The procedure:
as §2, §3

For assay [1], the system named is alpha-Adrenergic receptors. The assay is described as follows: Competitive displacement of Clozapine-a-2-NB590 by unmodified scaffold (NanoBRET). As to conditions: ADRA2C; other tracer 1μM, displaced by unmodified XAC. In kind it is binding, human. The procedure: Finally, we opted to compare the machine learning predictions for the 17 scaffolds to the empirical NanoBRET evaluations across 36 GPCR families investigated by both strategies (Figure 7). […] At the same time, empirical NanoBRET results for each scaffold were consolidated to include results for all relevant fluorescent tracer candidates screened at either 1 μM or 0.1 μM tracer concentrations. […] These additional verifications were incorporated to the comparative analysis and are also included in the compiled screening results (Supplementary Materials Excel spreadsheet).

Another assay deals with T5, CCR10 (Homo sapiens, UniProt P46092).
T5 construct: purchased Promega (in-house HiBiT-GPCR construct library, NanoBRET)
T5 sequence (P46092 1-362): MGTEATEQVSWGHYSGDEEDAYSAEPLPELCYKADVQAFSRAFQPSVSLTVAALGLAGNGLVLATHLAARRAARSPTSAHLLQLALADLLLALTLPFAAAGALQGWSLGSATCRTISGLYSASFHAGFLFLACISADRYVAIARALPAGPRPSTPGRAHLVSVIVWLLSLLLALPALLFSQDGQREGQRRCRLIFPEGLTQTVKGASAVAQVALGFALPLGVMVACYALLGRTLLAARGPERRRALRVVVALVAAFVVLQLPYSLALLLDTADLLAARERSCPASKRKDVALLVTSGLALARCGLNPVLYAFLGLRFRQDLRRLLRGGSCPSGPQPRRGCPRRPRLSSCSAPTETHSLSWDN
The assay is described as follows: NanoBRET screen HiBiT-CCR10 in HEK293. The format is binding. As to conditions: CCR10, tracer 0.1μM. The procedure: as §1

The target in a further assay is T6, CNR2 (Homo sapiens, UniProt P34972).
T6 construct: purchased Promega (in-house HiBiT-GPCR construct library, NanoBRET)
Nature of the assay: NanoBRET screen HiBiT-CNR2 in HEK293. The format is binding. The conditions noted are these: tracer 0.1μM. On the procedure:
as §1

The target in a further assay is T7, CHRM5 (Homo sapiens, UniProt P08912).
T7 construct: purchased Promega (in-house HiBiT-GPCR construct library, NanoBRET)
The assay is described as follows: NanoBRET screen HiBiT-CHRM5 in HEK293. In kind it is binding. As to conditions: tracer at 0.1μM. On the procedure:
as §1

The target of the next assay is T8, CHRM4 (Homo sapiens, UniProt P08173).
T8 construct: purchased Promega (in-house HiBiT-GPCR construct library, NanoBRET)
Nature of the assay: NanoBRET screen HiBiT-CHRM4 in HEK293. In kind it is binding. The conditions noted are these: tracer at 0.1μM. On the procedure:
as §1

In a further assay the target is T9, HRH1 (Homo sapiens, UniProt P35367).
T9 construct: purchased Promega (in-house HiBiT-GPCR construct library, NanoBRET)
Nature of the assay: NanoBRET screen HiBiT-HRH1 in HEK293. In kind it is binding.

Another assay concerns the target T10, ADRA2B (Homo sapiens, UniProt P18089).
T10 construct: purchased Promega (in-house HiBiT-GPCR construct library, NanoBRET)
Nature of the assay: NanoBRET screen HiBiT-ADRA2B in HEK293. In kind it is binding.

A further assay concerns the target T11, CHRM3 (Homo sapiens, UniProt P20309).
T11 construct: purchased Promega (in-house HiBiT-GPCR construct library, NanoBRET)
Nature of the assay: NanoBRET screen HiBiT-CHRM3 in HEK293. In kind it is binding.

For the compound `CC(C)N(CC[C@H](c1ccccc1)c1cc(CCNC(=O)CCOCCOCCOCCOCCNC(=O)CCc2ccc3n2[B-](F)(F)[N+]2=C(c4ccc[nH]4)C=CC2=C3)ccc1O)C(C)C` [Tolterodine-2-NB590], the “NanoBRET Fold Response” value at FZD10, on NPFFR1, at NPSR1 and at MC5R was 1.03 throughout.
With `CCCn1c(=O)c2[nH]c(-c3ccc(OCC(=O)NCCN)cc3)nc2n(CCC)c1=O` [XAC (unmodified)], the “NanoBRET Fold Response, other tracers/XAC (unmodified)” value in assay [1] is on record as 1.04.
`Cc1nc2n(c(=O)c1CCN1CCC(c3noc4cc(F)ccc34)CC1)CCCC2OC(=O)NCCOCCOCCOCCOCCNC(=O)CCc1ccc2n1[B-](F)(F)[N+]1=C(c3ccc[nH]3)C=CC1=C2` (stereo not shown) [Risperidone-2-NB590]: at CCR10, the “NanoBRET Fold Response” value is 1.03.
Regarding `CC(C)N(CC[C@H](c1ccccc1)c1cc(CCNC(=O)c2ccc(CNC(=O)CCc3ccc4n3[B-](F)(F)[N+]3=C(c5ccc[nH]5)C=CC3=C4)cc2)ccc1O)C(C)C` [Tolterodine-BZ-NB590], on CNR2, the “NanoBRET Fold Response” value is 1.03.
As to `CN(C)CCC=C1c2ccccc2CCc2ccc(C(=O)NCCNC(=O)CCOCCOCCOCCOCCNC(=O)CCc3ccc4n3[B-](F)(F)[N+]3=C(c5ccc[nH]5)C=CC3=C4)cc21` [Amitriptyline-a-2-NB590], the “NanoBRET Fold Response” value at CHRM5 is reported as 1.04; at CHRM4 it was 1.26.
In the case of `O=C(CCc1ccc2n1[B-](F)(F)[N+]1=C(c3ccc[nH]3)C=CC1=C2)NCc1ccc(C(=O)NCCOCCC(=O)N[C@@H]2CC[C@@]3(O)[C@H]4Cc5ccc(O)c6c5[C@@]3(CCN4CC3CC3)[C@H]2O6)cc1` [Naltrexone-3-NB590], the “NanoBRET Fold Response” value at HRH1 is 0.83 and 1.38; on ADRA2B, 0.77 and 0.73; on MC5R, 1.03; at CHRM3 it was 1.00 and 0.86.

These data come from publication PMC8151276, “An Integrated Approach toward NanoBRET Tracers for Analysis of GPCR Ligand Engagement” (Molecules, 2021).
